Reference: PMC6276879

Amino acid sequences for entries named in this document (tags omitted). Residues count along the entry.
UniProt O60260, 141-465: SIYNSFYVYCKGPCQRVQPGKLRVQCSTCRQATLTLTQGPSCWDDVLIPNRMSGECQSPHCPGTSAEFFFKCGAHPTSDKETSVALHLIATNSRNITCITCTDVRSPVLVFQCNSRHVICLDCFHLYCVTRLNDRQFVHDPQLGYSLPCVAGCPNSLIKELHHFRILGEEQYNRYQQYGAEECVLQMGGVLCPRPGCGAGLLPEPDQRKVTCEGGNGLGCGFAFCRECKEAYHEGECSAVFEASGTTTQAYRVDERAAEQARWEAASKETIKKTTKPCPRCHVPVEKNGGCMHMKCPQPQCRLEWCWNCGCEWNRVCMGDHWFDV
UniProt P68036, whole entry: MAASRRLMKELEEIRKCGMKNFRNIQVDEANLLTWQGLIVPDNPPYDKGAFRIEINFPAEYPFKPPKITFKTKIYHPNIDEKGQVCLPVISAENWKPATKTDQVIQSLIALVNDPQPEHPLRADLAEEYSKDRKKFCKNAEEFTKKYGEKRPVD

Assays:
[1] = biological target: parkin R0RBR (Homo sapiens) (UniProt O60260); assay: ITC; details: cited from earlier work
[2] = biological target: parkin (Homo sapiens) (UniProt O60260); details: UbcH7 conjugated to Ub, phosphorylated parkin bound to pUb; remark: other sources report otherwise

Kd [2]: 500 nM
Substance: UbcH7-Ub (from UniProt P68036)
Kd [1]: < 1000 nM
